Data published in patent publication US20230000774A1, “METHODS AND COMPOSITIONS PRODUCED THEREBY” (Albumedix Limited, priority 2019, published 2023).

Columns and labels:
[1] = Stability study 1: HPLC-SEC rHA monomer levels in spray-dried powders at 40° C.; assay type: physicochemical; conditions: liquid, stabiliser N/A, 0 weeks
Experimental: The spray dried powders were tested for their stability at 40° C. with monomer levels measured by HPLC size exclusion (HPLC-SEC).

[2] = rHA SEC analysis pre and post filtration through 1.2 μm filter; assay type: physicochemical
Experimental: Size exclusion chromatography was performed on an Agilent 1100 series HPLC employing a TsK gel G3000SWXL (300×7.8 mm I.d., 5 μm) column, an isocratic flow of phosphate buffer (pH 7) at 1 mL/min with UV detection at 210 nm.
HPLC analysis of the AP1903 and SEC analysis of the rHA was undertaken on a sample of the formulation dissolved in D5W before and after filtration through a 1.2 μm filter. […] The remainder of the rHA being higher order structures.

[3] = formulation dissolved in D5W, 1.2 μm filter

Row | Substance | rHA monomer level (HPLC-SEC) [1] | rHA Dimer, Pre-filtration ([2]; formulation dissolved in D5W) [%] | rHA Monomer, Pre-filtration ([2]; formulation dissolved in D5W) [%] | rHA Dimer, Post 1.2 filtration [2, 3] [%] | rHA Monomer, Post 1.2 filtration [2, 3] [%] | rHA Dimer, Stock ([2]; stock rHA solution) [%] | rHA Monomer, Stock ([2]; stock rHA solution) [%]
1 | Liquid: AlbIX recombinant human albumin, liquid, not spray dried | 96.5 | – | – | – | – | – | –
2 | rHA: recombinant human albumin, Albumedix | – | 17 | 81 | 17 | 81 | 3 | 97
